Here are results for one compound from patent US20100183613A1, “METHODS OF USING MEVALONATE DECARBOXYLASE (MVD) ANTAGONISTS” (NOVARTIS AG, priority 2008, published 2010).

The data set deals with human PBMCs. As to conditions: human PBMC infected with virus, 48 hours, Celltiter Glo.

`CC[C@H](C)C(=O)O[C@H]1C[C@@H](C)C=C2C=C[C@H](C)[C@H](CC[C@@H]3C[C@@H](O)CC(=O)O3)[C@H]21` [Lovastatin]: the cytotoxicity result is recorded as “not observed”.
